## Measured affinities in a library of Ab-14 light chain variants

The target is the same throughout: PDVDLGDISGINAS, from the HR2 region of SARS-CoV-2 spike.

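Phage display of a naive human antibody library on the peptide gave the parent. This is the validation round: designs drawn from the data on random variants, tested in the same kind of assay. Several design methods are mixed in this list. AlphaSeq pools MATa yeast showing the antibodies with MATalpha yeast showing the peptide. Binding brings cells together so that they mate, and sequencing counts the barcode pairs among the diploids. Each replicate has its own calibration line, from reference interactions of the BCL2 family. Each pool was mated in six replicate cultures.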

Each scFv is VH, the linker GGGGSGGGGSGGGGS, VL, as in the parent Ab-14, and differs from it in the CDRs of the light chain only.
VH: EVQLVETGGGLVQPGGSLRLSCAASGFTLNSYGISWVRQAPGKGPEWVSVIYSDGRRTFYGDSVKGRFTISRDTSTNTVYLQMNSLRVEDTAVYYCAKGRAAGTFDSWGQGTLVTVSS
VL: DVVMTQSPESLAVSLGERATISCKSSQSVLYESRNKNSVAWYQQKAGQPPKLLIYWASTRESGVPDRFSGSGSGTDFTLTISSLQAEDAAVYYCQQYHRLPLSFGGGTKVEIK

Variants are written as CDR1, CDR2 and CDR3 of the light chain (limits as in the source). Parent: KSSQSVLYESRNKNSVA, WASTRES, QQYHRLPLS. This list holds designs with more than six substitutions. Each Kd is an estimate from the mating assay, the geometric mean of the replicates in which the pair was seen; lower is stronger. A sequence measured in both rounds can read differently, since the two assays cover different ranges. Nonspecific signal, from three strains lacking the peptide, appeared in 4% of pairings of all light chain designs, centred on 430 nM (5% of these signals below 38 nM); values are not corrected for it. For each scFv, signals with the empty controls are counted beside the result. The authors averaged sequences with at least three values out of six and counted those with two or fewer as poor binders.

The variant TVSQVHGMLSHDKNSVA | DMNTRGS | QQYDRLPLS gave 32 nM (6 of 6 replicates; controls 0 of 18). For IVSQLMLWGMHAKNSIA | EAQTRLN | QQYDRLPLI, the assay gave 400 nM (2 of 6 replicates; controls 0 of 18). The variant MISQVLNMLTKTGNNVA | DLAERED | QQYFRLPLS showed 26 nM (3 of 6 replicates; controls 1 of 18). The variant SFDLTKSGMENERYSIA | ETSTLMT | QDYHRLPLA showed 240 nM (4 of 6 replicates; controls 0 of 18). The variant AFSEHAFYGQRDENAIA | GADVRAK | QQYWRLPLT gave 3.4 nM (6 of 6 replicates; controls 0 of 18). With TLGNLMGGQNEMDNSIA | GHETRVQ | QQYWHLPLV the result was 5.7 nM (6 of 6 replicates; controls 1 of 18). For MFSQLFMYGSRNPNSVA | QASTRES | QQYDRLPLI, the assay gave 4.8 nM (6 of 6 replicates; controls 0 of 18).

With MISQLMNLGQFAINSVA | QASIRNE | QQYDRLPLV the result was 54 nM (6 of 6 replicates; controls 0 of 18). The variant IIGGSMLMESRNKNSVA | NAETREY | QHYDRLPLS showed 10 nM (6 of 6 replicates; controls 1 of 18). With MIYGTQRELGLAANSIA | DNVTRYS | QQYERLPLS the result was 1.4 µM (3 of 6 replicates; controls 4 of 18). The variant KVSEFMKGLMMRTDSIA | DNNTRNS | QQYDRLPLS gave 19 nM (6 of 6 replicates; controls 1 of 18). With ALAYTLHQNESNQSNIA | QVQEREV | QQYYRLPLG the result was 220 nM (1 of 6 replicates; controls 0 of 18). The variant HLSQTTDLESVHKNSIA | DLMTRES | QQYHRLPLS showed 1.5 nM (6 of 6 replicates; controls 2 of 18). With KITQTMRFEQKNSNNIA | EVTLRSK | QQYYRLPLS the result was 12 nM (6 of 6 replicates; controls 0 of 18).

For TLALRTSYGNGLNKAIA | DVSARSY | QQYARLPLL, the assay gave 69 nM (6 of 6 replicates; controls 0 of 18). With KLDQWQDYESRNKASVA | QASTREQ | QQYHRLPLS the result was 1.8 nM (6 of 6 replicates; controls 3 of 18). The variant KLVGDMQSDKNPSENIA | EMSSVEQ | QQYARLPLE showed 230 nM (3 of 6 replicates; controls 1 of 18). With KIHMGWEMGSRWNDNIA | EANLRFS | QQYNRLPLF the result was 19 nM (6 of 6 replicates; controls 0 of 18). With HMSQVTMYGYWNMNSVA | QTSTREE | QQYDRLPLS the result was 120 nM (5 of 6 replicates; controls 0 of 18). The variant KLQYSVLYGSRNKNSVA | NASTRLQ | QQYHRLPLS gave 5.3 nM (6 of 6 replicates; controls 0 of 18). The variant MMSYGWLAGSRNKRNVA | DRETRES | QQYDRLPLS showed 1.1 nM (6 of 6 replicates; controls 0 of 18).

The variant SLQYLEEESLIGASAIA | DVNIAVM | QQYSRLPLA gave 5.8 nM (6 of 6 replicates; controls 2 of 18). With KLEMSMPYESRMKNSVA | HASVRES | QQYHRLPLS the result was 1.0 nM (6 of 6 replicates; controls 1 of 18). The variant NLGGEDFNSTYGMKAVA | DVSEVGE | QHYSRLPLS showed 48 nM (6 of 6 replicates; controls 1 of 18). The variant KQDFSCPGESRNKNSVA | QASTRMS | QQYHRLPLS gave 2.3 nM (6 of 6 replicates; controls 1 of 18). For NISQMFLMETKNVNNVA | QTSTREQ | QDYHRLPLS, the assay gave 1.1 nM (6 of 6 replicates; controls 1 of 18). The variant KSSGSVCYGDRMKNSVA | NASTREQ | QQYHRLPLS gave 2.3 nM (6 of 6 replicates; controls 0 of 18). For RFDAAMPMQNSNINSIA | EKAIQAD | QQYNRLPLS, the assay gave 3.6 nM (6 of 6 replicates; controls 0 of 18).

The variant KISQMYRYEQQNSSSIA | EANTRMN | QSYHRLPLS gave 540 nM (5 of 6 replicates; controls 0 of 18). For NIVGRVEDNQTENNAIA | DAHCRAG | QQYSRLPIS, the assay gave 100 nM (5 of 6 replicates; controls 0 of 18). For TVSQVHEMLSHNKNSVA | DMNTREQ | QQYDRLPLS, the assay gave 26 nM (5 of 6 replicates; controls 0 of 18).

Repeated from above, the 3 best binders with a signal in all replicates:

| CDR-L1 | CDR-L2 | CDR-L3 | Kd (apparent) | replicates with signal | empty controls |
|---|---|---|---|---|---|
| KLEMSMPYESRMKNSVA | HASVRES | QQYHRLPLS | 1.0 nM | 6/6 | 1/18 |
| MMSYGWLAGSRNKRNVA | DRETRES | QQYDRLPLS | 1.1 nM | 6/6 | 0/18 |
| NISQMFLMETKNVNNVA | QTSTREQ | QDYHRLPLS | 1.1 nM | 6/6 | 1/18 |

Values reported by Li et al. 2023, doi:10.1038/s41467-023-39022-2 (FLAb copy).